From PubChem BioAssay AID463212 (Sanford-Burnham Center for Chemical Genomics, 2010)
This is a selection; strong and weak results do not stand in their true shares. Some salts or complexes appear as unconnected parts, following the source record. Activity calls are given as the source filed them.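 The calls were made as follows: active = growth inhibition of the mutant yeast at or above 50%; inactive = the rest.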

Experiment: growth inhibitors of tim23-1 mutant yeast, primary screen, luminescence, uHTS (AID 463212);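 also: temperature-sensitive mutant grown at 25 °C; plate controls were DMSO-treated mutant yeast for no effect and medium wells lacking yeast for full effect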
Conditions: S. cerevisiae tim23-1 growth, BacTiter-Glo luminescence, 24 h; at 20 µM; active compounds read high

SMILES	inhibition
O=[N+]([O-])c1cc([N+](=O)[O-])c(Nc2nnnn2CCO)c([N+](=O)[O-])c1	inactive: 16.9%
CC1=C2N=C(C=C3N=C(C(C)=C4[N-][C@@](C)([C@@H]5N=C1[C@](C)(CCC(=O)NC[C@@H](C)OP(=O)([O-])O[C@H]1[C@@H](O)[C@@H](n6cnc7cc(C)c(C)cc76)O[C@@H]1CO)[C@H]5CC(N)=O)[C@@](C)(CC(N)=O)[C@@H]4CCC(N)=O)[C@@](C)(CC(N)=O)[C@@H]3CCC(N)=O)C(C)(C)[C@@H]2CCC(N)=O.[C-]#N.[Co+3]	inactive: 25.3%
CCOC(=O)C(CC)C1=NC(C)(C)Cc2ccccc21.O=[N+]([O-])c1cc([N+](=O)[O-])c(O)c([N+](=O)[O-])c1 (stereo unspecified)	inactive: 10.5%
CP(=O)(Nc1ccc(SC(F)(F)F)cc1)Oc1ccccc1 (stereo unspecified)	inactive: 29.6%
CCCOc1ccc(NP(C)(=O)Oc2ccc(Cl)cc2)cc1 (stereo unspecified)	inactive: 19.2%
CN1CCCCC1COC(=O)C1(O)c2ccccc2CCc2ccccc21 (stereo unspecified)	inactive: -1.22%
COc1ccccc1OP(C)(=O)Nc1c(C)cccc1C (stereo unspecified)	inactive: -1.38%
O=[N+]([O-])c1cc([N+](=O)[O-])c(-n2nnc3ccccc32)c([N+](=O)[O-])c1	inactive: 20.9%
Cc1nc2ccc3ccccc3c2s1.O=[N+]([O-])c1cc([N+](=O)[O-])c(O)c([N+](=O)[O-])c1	inactive: 13.5%
O=[N+]([O-])c1cc([N+](=O)[O-])c(-c2cnn(-c3ccccc3)c2)c([N+](=O)[O-])c1	inactive: -73.6%
Cc1cc(C)cc(OP(C)(=O)Nc2ccc(C)cc2C)c1 (stereo unspecified)	inactive: 15.5%
CCOC(=O)c1ccc(NP(C)(=O)Oc2cc(C)cc(C)c2)cc1 (stereo unspecified)	inactive: 25.7%
COc1ccccc1OP(C)(=O)Nc1cccc(Br)c1 (stereo unspecified)	inactive: 12.5%
CP(=O)(Nc1cccc(Br)c1)Oc1ccccc1 (stereo unspecified)	inactive: 19.1%
Cc1cc(C)cc(OP(C)(=O)Nc2ccccn2)c1 (stereo unspecified)	inactive: 13.3%
Cc1ccc(C)c(NP(C)(=O)Oc2ccccc2)c1 (stereo unspecified)	inactive: -2.63%
O=C(O)c1cccc(Nc2c([N+](=O)[O-])cc([N+](=O)[O-])cc2[N+](=O)[O-])c1	inactive: 5.79%
CC1=NCCc2c1[nH]c1ccccc21.O=[N+]([O-])c1cc([N+](=O)[O-])c(O)c([N+](=O)[O-])c1	inactive: 15.5%
CC(C)(C)c1ccc(OP(C)(=O)Nc2ccc(SC(F)(F)F)cc2)cc1 (stereo unspecified)	inactive: 34.4%
Cc1cccc(C)c1OP(C)(N)=O (stereo unspecified)	inactive: 7.26%
O=[N+]([O-])c1cc([N+](=O)[O-])c(Nc2cccnc2)c([N+](=O)[O-])c1	inactive: 45.7%
COc1ccccc1OP(C)(=O)Nc1cc(Cl)ccc1C (stereo unspecified)	inactive: 10.3%

SMILES	inhibition
COc1ccc(OP(C)(=O)Nc2cccc(F)c2)cc1 (stereo unspecified)	inactive: 19.9%
Cc1cc(C)cc(OP(C)(N)=O)c1 (stereo unspecified)	inactive: 2.69%
CCOC(=O)c1ccc(NP(C)(=O)Oc2ccccc2)cc1 (stereo unspecified)	inactive: 9.37%
COc1ccccc1OP(C)(=O)Nc1ccc(C)cc1 (stereo unspecified)	inactive: 7.31%
Cc1ccc(NP(C)(=O)Oc2ccccc2)c(C)c1 (stereo unspecified)	inactive: 13.6%
CCN(CC)CCCOC(=O)C(O)(c1ccccc1)c1ccccc1	inactive: 0.484%
CCc1ccc(OP(C)(=O)N2CCN(c3ccc([N+](=O)[O-])cc3)CC2)cc1 (stereo unspecified)	inactive: 26.9%
CP(=O)(NC(=O)Nc1ccccc1)Oc1ccccc1 (stereo unspecified)	inactive: -10.2%
Cc1cc(C)cc(OP(C)(=O)Nc2ccc(SC(F)(F)F)cc2)c1 (stereo unspecified)	inactive: 31.4%
CP(=O)(Nc1ccc(SC(F)(F)F)cc1)Oc1ccc(Cl)cc1 (stereo unspecified)	inactive: 28.7%
Cc1cccc(C)c1OP(C)(=O)Nc1ccc(SC(F)(F)F)cc1 (stereo unspecified)	inactive: 36.3%
CP(=O)(Oc1ccccc1)OC(c1ccccc1)C(F)(F)F (stereo unspecified)	inactive: 14.3%
CP(=O)(Nc1ccccn1)Oc1ccc(Cl)cc1 (stereo unspecified)	inactive: 13.1%
CCOP(C)(=S)SCC(=O)NC(C)C(=O)O (stereo unspecified)	inactive: 19.3%
O=[N+]([O-])c1cc([N+](=O)[O-])c(O)c([N+](=O)[O-])c1.c1ccc(Oc2ccncc2)cc1	inactive: 1.56%
CCOC(=O)c1ccc(NP(C)(=O)Oc2ccc(OC)cc2)cc1 (stereo unspecified)	inactive: 17.7%
COc1ccccc1OP(C)(=O)Nc1ccccc1 (stereo unspecified)	inactive: -0.796%
CP(=O)(Nc1ccccc1Br)Oc1ccccc1 (stereo unspecified)	inactive: -4.54%
CP(=S)(Nn1cnnc1)Oc1ccccc1 (stereo unspecified)	inactive: 5.87%
CP(=O)(OC12CC3CC(CC(C3)C1)C2)OC12CC3CC(CC(C3)C1)C2	inactive: 43.9%
CCOC(=O)c1ccc(NP(C)(=O)Oc2ccc(Cl)cc2)cc1 (stereo unspecified)	inactive: 27.5%
Nc1ccc2c(ccc3cccnc32)n1.O=[N+]([O-])c1cc([N+](=O)[O-])c(O)c([N+](=O)[O-])c1	inactive: -6.07%

SMILES	inhibition
CP(=O)(Oc1ccccc1)N1CCOC1=O (stereo unspecified)	inactive: 14.5%
CCc1ccc(OP(C)(=O)Nc2cccnc2)cc1 (stereo unspecified)	inactive: 6.74%
COc1ccccc1OP(C)(=O)Nc1c(C)n(C)n(-c2ccccc2)c1=O (stereo unspecified)	inactive: 4.04%
O=C(OCCCN1CCCC1)C(O)(c1ccccc1)C1CCCCC1 (stereo unspecified)	inactive: -23.3%
CCN(CC)CC(O)COC(=O)C(O)(c1ccccc1)C1CCCCC1 (stereo unspecified)	inactive: 6.72%
COc1ccc(OP(C)(=O)Nc2ccc(Br)cc2)cc1 (stereo unspecified)	inactive: 14.3%
CN(C)C(=O)c1c([N+](=O)[O-])cc([N+](=O)[O-])cc1[N+](=O)[O-]	inactive: 18%
CP(=O)(Nc1ccc(Cl)cc1)Oc1ccc(F)cc1 (stereo unspecified)	inactive: 25.9%
CC(C)(C)c1ccc(OP(C)(=O)O)cc1	inactive: 18.2%
COc1ccccc1OP(C)(=O)Nc1ccccc1Br (stereo unspecified)	inactive: 10.7%
CN(C)CCOC(=O)C(O)(c1ccccc1)C1CCCC1 (stereo unspecified)	inactive: -1.43%
COc1ccccc1OP(C)(=O)Nc1ccc(Br)cc1 (stereo unspecified)	inactive: 8.86%
CCc1ccc(OP(C)(=O)O)cc1	inactive: -3.15%
CP(=O)(Nc1ccccn1)Oc1ccccc1 (stereo unspecified)	inactive: 3.68%
COc1ccccc1OP(C)(=O)Nc1ccc(C)cc1C (stereo unspecified)	inactive: 15.6%
O=[N+]([O-])c1cc([N+](=O)[O-])c(Nc2ccccn2)c([N+](=O)[O-])c1	active: 70.1%
Cc1c(NP(C)(=O)Oc2ccc(C(C)C)cc2)c(=O)n(-c2ccccc2)n1C (stereo unspecified)	inactive: 7.24%
COc1ccc(OP(C)(=O)Nc2ccccc2Br)cc1 (stereo unspecified)	inactive: -11.1%
COc1ccccc1OP(C)(=O)Nc1ccc(C)c(C)c1 (stereo unspecified)	inactive: 1.36%
Cc1cc(C)cc(OP(C)(=O)Nc2cccc(C(F)(F)F)c2)c1 (stereo unspecified)	inactive: 8.99%
CP(=O)(OCCOc1ccccc1)OCCOc1ccccc1	inactive: 0.995%
CP(=O)(Nc1ccc(Cl)cc1Cl)Oc1ccccc1 (stereo unspecified)	inactive: -3.67%

SMILES	inhibition
Cc1nc2ccc3ccccc3c2o1.O=[N+]([O-])c1cc([N+](=O)[O-])c(O)c([N+](=O)[O-])c1	inactive: 24.2%
COc1ccc(OP(C)(=O)Nc2ccc(SC(F)(F)F)cc2)cc1 (stereo unspecified)	inactive: 36.6%
CCOC(=O)c1ccc(NP(C)(=O)Oc2ccc(F)cc2)cc1 (stereo unspecified)	inactive: 18.8%
CCCCCOc1ccc(NP(C)(=O)Oc2ccc(Cl)cc2Cl)cc1 (stereo unspecified)	inactive: 43%
O=[N+]([O-])c1cc([N+](=O)[O-])c(OC2CCCCC2O)c([N+](=O)[O-])c1 (stereo unspecified)	inactive: 14.6%
CP(=O)(Nc1ccccc1)Oc1ccc(F)cc1 (stereo unspecified)	inactive: -6.67%
CCN(CC)CCCOC(=O)C(O)(c1ccccc1)C1CCCCC1 (stereo unspecified)	inactive: -6.03%
CC(C)c1ccc(OP(C)(=O)Nc2ccc(SC(F)(F)F)cc2)cc1 (stereo unspecified)	inactive: 28.8%
CP(=O)(Nc1ccccc1F)Oc1ccccc1 (stereo unspecified)	inactive: 10.3%
COc1ccc2c(c1O)-c1c(O)c(OC)cc3c1[C@H](C2)[N+](C)(C)CC3.O=[N+]([O-])c1cc([N+](=O)[O-])c([O-])c([N+](=O)[O-])c1[O-]	inactive: 8.93%
O=C(OCCN1CCN(CCOCc2ccccc2)CC1)C(O)(c1ccccc1)c1ccccc1	inactive: 2.78%
O=C(OC1CN2CCC1CC2)c1ccc([N+](=O)[O-])cc1 (stereo unspecified)	inactive: -292%
CCOP(C)(=S)SCC(=O)NC(C)(CC)C(=O)O (stereo unspecified)	inactive: 29.3%
CP(=O)(Nc1ccc(SC(F)(F)F)cc1)Oc1ccc(F)cc1 (stereo unspecified)	inactive: 21%
Cc1ccccc1NP(C)(=O)Nc1ccccc1C	inactive: 10.1%
CP(=O)(Nc1ccc2c(c1)OCCO2)Oc1ccccc1 (stereo unspecified)	inactive: 16.9%
COc1ccc(NP(C)(=O)Oc2ccccc2OC)cc1 (stereo unspecified)	inactive: -3.88%
CN(C)CCOC(=O)C(O)(c1ccccc1)C1CCCCC1 (stereo unspecified)	inactive: -10.4%
COc1ccc(OP(C)(=O)Nc2cccc(Br)c2)cc1 (stereo unspecified)	inactive: 14.5%
O=[N+]([O-])c1cc([N+](=O)[O-])c(NCC2CCS(=O)(=O)C2)c([N+](=O)[O-])c1 (stereo unspecified)	inactive: 16.8%
